Data from US11883398B2, “Dipeptidylpeptidase 4 inhibition enhances lymphocyte trafficking, improving both naturally occurring tumor immunity and immunotherapy” (INSTITUT PASTEUR, priority 2015, dated 2024).

How the values were obtained:
mCXCL10 = details: CpG-A intravenously, sitagliptin vs control
Description: Plates were washed twice with 300 μL of PBS. Blocking was done with BSA 1% (proteinase free, Gibco), in PBS for 2h at room temperature. Plates were washed 3 times with 300 μL of 0.05% Tween-20 in PBS. Tumor and plasma samples were diluted in BSA 1% and incubated for 2h, at room temperature. To obtain a standard curve, and to control for the cross-reactivity of the detection antibody, dilutions of recombinant mCXCL10 (Peprotech) or DPP4-digested mCXCL10(3-77) were incubated in parallel. For detection of mCXCL10(1-77), biotinylated α-mCXCL10(1-77) (AbDSerotec, 0.5 μg/ml, clone AbD17185.1), Streptavidin-HRP (BD Biosciences) and 1-STEP ULTRA TMB (Thermo Scientific) were used.
Enzymatic reactions were stopped with HCL 1N and plates were read with 450 nm in a Lab-systems […] MS (Thermo) reader. […] Detection of mDPP4, mCCL22 and mCXCL12 was done with the DUOSET® ELISA kit (R&D). Detection of mVEGF, mCCL2 and mCCL3 was done with a multiplex kit (Invitrogen).

[1] = system: DPP8/9 over-expressing cells; details: Huan et al. 2015; cited from earlier work
DPP4 = system: DPP4
From the text: WT C57BL/6 CD45.2 Thy1.2 and BALB/c mice were obtained from Charles Rivers, France. WT C57BL/6 CD45.1, Rag2^−/−, Cxcr3^−/−, Ifnar1^−/−Dpp4^+/−, Dpp4^−/−, Cxcl10^−/−, Ccr5^−/−, Pmel-1 Thy-1.1^+Thy-1.1^+, OT1 and FVB-Tg(CAG-luc) mice were bred in our mouse facility. […] Mice were maintained in a specific pathogen free facility and all experimental protocols were approved by the Comité d'Ethique pour l'Expérimentation Animale (The ethics committee for animal experimentation) Paris.

N[C@@H](CC(=O)N1CCn2c(nnc2C(F)(F)F)C1)Cc1cc(F)c(F)cc1F [sitagliptin]
plasma concentration of mCCL3 (mCXCL10): not significantly different
plasma concentration of mCCL22 (mCXCL10): significant decrease
selectivity for DPP4 over DPP8 and 9 [1]: highly-selective inhibitors of DPP4
DPP4 enzymatic activity in melanoma tumors extracted from mice (DPP4; B16F10 tumor homogenates, sitagliptin vs control chow): reduced DPP4 enzymatic activity
inhibition of in vivo DPP4 enzymatic activity (DPP4; WT mice, chow containing 1.1% sitagliptin, plasma 24h after initiation of treatment): > 80%
DPP4 activity in the peritoneal cavity (DPP4; peritoneal lavage, sitagliptin vs control chow): significantly inhibited
